Assay results reported in US6331565A, “Dicaffeoylquinic acid for treating hepatitis B and the diseases associated with retrovirus, and the new caffeoylquinic acid derivatives” (Institute of Radiation Medicine Academy of Military Medical …, priority 1996, dated 2001).
Read-outs that look alike come from different tables or passages of the source.

Tests used:
HBsAg = assay type: cell-based, HBV
Method: (§1) The cultures were passenged by trypsinization every 4 days.
(§2) HBsAg and HBeAg in the culture medium were determined according to the protocol respectively. The culture medium (200 μl) was absorbed on beads containing antibody to HBsAg/HBeAg in the presence of the conjugate. After overnight incubation, the beads were washed 6 times with […] PBS containing 0.05% Tween-80 and incubated with 200 μl of [^125 I] anti-HBs(Hbe) overnight. The beads were washed 6 times as above. The amounts HBsAg/HBeAg as measure of cpm of [^125 I] labeled immunocomplex was counted on γ-counter.

HBeAg = assay type: cell-based, HBV
Method: as §1, §2

HIV-1 [1] = test system: HIV-1
Method: (§3) A human T-cell leukemia cell line. MT4 cells, was used in this study. It was maintained in RPMI-1640 medium supplemented with 10% FCS. 100 U/ml of penicillin, and 100 μg/ml of streptomycin at 37° C. in a humidified atmosphere of 5% CO2. Cell cultures were split into fresh medium every 4 days.
(§4) HIV-1 virus was propagated in MT4 cells. The cell-free supernatants of HIV-1 infected MT4 cell culture were used as virus stocks and frozen at -80° C. until used. The 50% tissue culture infected dose (TCID50) of the cell-free virus stock was determined by end-point titration with MT4 cells in 96-well microdilution plates.
MT4 cells in culture were counted by trypan blue exclusion method. The MT4 cells suspended in a small volume of RPMI-1640 medium without FCS and infected with HIV-1 at 200 TCID50 viruses per 10^6 cells. The mixture of MT4 cells and virus was subsequently incubated at 37° C. in a humidified atmosphere of 5% CO2 for 1 hr to allow virus to adsorbed to cells. Unabsorbed viruses were then removed by washing one with […] of the fresh medium and centrifuged at 1000 rpm for ten minutes. The cells were suspended in the medium and distributed into 12-well microculture plates (10^6 cells/3 ml/well). […]
(§5) After 7-day incubation the viable cells was evaluated by MTT method as described above.

HIV-1 [2] = settings: 7 days
Method: as §3, §4
After 4 h, 100 μl of solvent (10% Triton X-100 and 0.4% HCl isopropanol)was added to cultures to solubilizes formazan. After an overnight incubation, the absorbency of each well was measured using a microplate reader (Bio-Rad, model 450) at 560 nm.
MT4 cells in culture were counted by trypan blue exclusion method. The MT4 cells suspended in a small volume of RPMI-1640 medium without FCS and infected with HIV-1 at 200 TCID50 viruses per 10^6 cells. The mixture of MT4 cells and virus was subsequently incubated at 37° C. in a humidified atmosphere of 5% CO2 for 1 hr to allow virus to adsorbed to cells. Unabsorbed viruses were then removed by washing one with […] of the fresh medium and centrifuged at 1000 rpm for ten minutes. The cells were suspended in the medium and distributed into 12-well microculture plates (10^6 cells/3 ml/well). […] After 4-day incubation at 37° C. in a humidified atmosphere containing 5% CO2 the medium was aspirated and the fresh medium containing the same concentration of drug was added.
as §5

[3] = test system: lymphocyte proliferation induced by Con A; settings: for RPI: Normal = 100
Method: mice. Five-wk-old female C57BL/6 mice were used throughout the experiments. All mice were housed in sterile cages in a room supplied with filtrated air. They were given pelleted food and chlorinated water ad libitum.
Infection with LP-BM5 MuLV. Cell-free supernatants of LP-BM5 MULV were prepared by cocultivating G6 SC-1 clones with normal SC-1 cells for 5 days. Mice were inoculated intraperitoneally with 150 μl of stock solution containing 10^3,4×C plaque-forming units and 10^2,3 Mink-cell focks-forming units per […].
Then, the spleens were collected. Cell suspensions were prepared by repeated passage of whole spleen through a pipette, the capsule and debris were allowed to settle, and the supernatants containing cells were collected and washed twice in PBS. […] Incubation continued for 16 hr, then cells were collected on filter that was determined by a scintillation counter.

O=C(/C=C/c1ccc(O)c(O)c1)OC1CC(OC(=O)/C=C/c2ccc(O)c(O)c2)(C(=O)O)CC(O)C1O (centres unmarked) [Compound A, 1,5-di-O-caffeoylquinic acid]
HBsAg cpm (HBsAg; 7.81 μg/ml, day 4): 1032.6 ± 10.8 cpm | HBsAg cpm (HBsAg; 7.81 μg/ml, day 8): 979.3 ± 42.3 cpm | HBsAg cpm (HBsAg; 7.81 μg/ml, day 12): 617.0 ± 27.2 cpm | HBsAg cpm (HBsAg; 15.63 μg/ml, day 4): 941.1 ± 27.2 cpm | HBsAg cpm (HBsAg; 15.63 μg/ml, day 8): 888.9 ± 16.3 cpm | HBsAg cpm (HBsAg; 15.63 μg/ml, day 12): 574.6 ± 18.8 cpm | HBsAg cpm (HBsAg; 31.25 μg/ml, day 4): 824.2 ± 29.7 cpm | HBsAg cpm (HBsAg; 31.25 μg/ml, day 8): 808.5 ± 18.9 cpm | HBsAg cpm (HBsAg; 31.25 μg/ml, day 12): 546.5 ± 8.7 cpm | HBsAg cpm (HBsAg; 62.5 μg/ml, day 4): 717.5 ± 12.2 cpm | HBsAg cpm (HBsAg; 62.5 μg/ml, day 8): 699.7 ± 20.2 cpm | HBsAg cpm (HBsAg; 62.5 μg/ml, day 12): 464.2 ± 7.50 cpm | HBsAg cpm (HBsAg; 125 μg/ml, day 4): 618.5 ± 25.4 cpm | HBsAg cpm (HBsAg; 125 μg/ml, day 8): 617.7 ± 20.6 cpm | HBsAg cpm (HBsAg; 125 μg/ml, day 12): 416.1 ± 14.7 cpm | HBsAg cpm (HBsAg; 250 μg/ml, day 4): 563.5 ± 23.1 cpm | HBsAg cpm (HBsAg; 250 μg/ml, day 8): 480.8 ± 46.5 cpm | HBsAg cpm (HBsAg; 250 μg/ml, day 12): 367.5 ± 6.70 cpm | suppression of HBsAg (HBsAg; 4, 8 and 12 days): marked suppression | HBeAg cpm (HBeAg; 7.81 μg/ml, day 4): 4764.0 ± 212.0 cpm | HBeAg cpm (HBeAg; 7.81 μg/ml, day 8): 7400.7 ± 163.3 cpm | HBeAg cpm (HBeAg; 7.81 μg/ml, day 12): 7188.3 ± 197.5 cpm | HBeAg cpm (HBeAg; 15.63 μg/ml, day 4): 4264.0 ± 192.1 cpm | HBeAg cpm (HBeAg; 15.63 μg/ml, day 8): 5707.0 ± 567.8 cpm | HBeAg cpm (HBeAg; 15.63 μg/ml, day 12): 6211.5 ± 183.3 cpm | HBeAg cpm (HBeAg; 31.25 μg/ml, day 4): 3503.4 ± 328.9 cpm | HBeAg cpm (HBeAg; 31.25 μg/ml, day 8): 4906.8 ± 196.4 cpm | HBeAg cpm (HBeAg; 31.25 μg/ml, day 12): 5991.2 ± 291.9 cpm | HBeAg cpm (HBeAg; 62.5 μg/ml, day 4): 3181.4 ± 181.7 cpm | HBeAg cpm (HBeAg; 62.5 μg/ml, day 8): 4631.7 ± 196.8 cpm | HBeAg cpm (HBeAg; 62.5 μg/ml, day 12): 4603.5 ± 66.76 cpm | HBeAg cpm (HBeAg; 125 μg/ml, day 4): 2867.7 ± 53.8 cpm | HBeAg cpm (HBeAg; 125 μg/ml, day 8): 4052.1 ± 150.6 cpm | HBeAg cpm (HBeAg; 125 μg/ml, day 12): 4014.8 ± 82.8 cpm | HBeAg cpm (HBeAg; 250 μg/ml, day 4): 2034.2 ± 100.3 cpm | HBeAg cpm (HBeAg; 250 μg/ml, day 8): 3081.5 ± 181.7 cpm | HBeAg cpm (HBeAg; 250 μg/ml, day 12): 3025.4 ± 74.0 cpm | suppression of HBeAg (HBeAg; 4, 8 and 12 days): marked suppression | appearance of syncytia, conclusion (HIV-1 [1]): restrain the appearance of syncytia | syncytia (HIV-1 [1]; dosage over 25 μg/ml, 4 days): no syncytia were observed | O.D. (HIV-1 [2]; 1.56 μg/ml, 1000 TCID50 (first column pair)): 0.33 ± 0.04 O.D. | O.D. (HIV-1 [2]; 1.56 μg/ml, 1000 TCID50 (second column pair)): 0.41 ± 0.04 O.D. | O.D. (HIV-1 [2]; 3.12 μg/ml, 1000 TCID50 (first column pair)): 0.43 ± 0.03 O.D. | O.D. (HIV-1 [2]; 3.12 μg/ml, 1000 TCID50 (second column pair)): 0.49 ± 0.06 O.D. | O.D. (HIV-1 [2]; 6.25 μg/ml, 1000 TCID50 (first column pair)): 0.57 ± 0.06 O.D. | O.D. (HIV-1 [2]; 6.25 μg/ml, 1000 TCID50 (second column pair)): 0.68 ± 0.03 O.D. | O.D. (HIV-1 [2]; 12.5 μg/ml, 1000 TCID50 (first column pair)): 0.67 ± 0.05 O.D. | O.D. (HIV-1 [2]; 12.5 μg/ml, 1000 TCID50 (second column pair)): 0.77 ± 0.06 O.D. | O.D. (HIV-1 [2]; 25 μg/ml, 1000 TCID50 (first column pair)): 0.78 ± 0.03 O.D. | O.D. (HIV-1 [2]; 25 μg/ml, 1000 TCID50 (second column pair)): 0.83 ± 0.02 O.D. | O.D. (HIV-1 [2]; 50 μg/ml, 1000 TCID50 (first column pair)): 0.82 ± 0.05 O.D. | O.D. (HIV-1 [2]; 50 μg/ml, 1000 TCID50 (second column pair)): 0.80 ± 0.02 O.D. | O.D. (HIV-1 [2]; 100 μg/ml, 1000 TCID50 (first column pair)): 0.72 ± 0.10 O.D. | O.D. (HIV-1 [2]; 100 μg/ml, 1000 TCID50 (second column pair)): 0.78 ± 0.10 O.D. | cpm ([3]; 25 mg/kg, Con A (2.5 μg/ml)): 28627 ± 3206 cpm | RPI ([3]; 25 mg/kg, Con A (2.5 μg/ml)): 80.34 | cpm ([3]; 25 mg/kg, Con A (5 μg/ml)): 49308 ± 2967 cpm | RPI ([3]; 25 mg/kg, Con A (5 μg/ml)): 88.00 | cpm ([3]; 50 mg/kg, Con A (2.5 μg/ml)): 31579 ± 3312 cpm | RPI ([3]; 50 mg/kg, Con A (2.5 μg/ml)): 88.63 | cpm ([3]; 50 mg/kg, Con A (5 μg/ml)): 51098 ± 3270 cpm | RPI ([3]; 50 mg/kg, Con A (5 μg/ml)): 91.19
